Source: article PMC3272584 (Bioorganic & medicinal chemistry, 2011)

Test system: rat neonatal microglia
Assay: Short-term microglia cell viability: LDH release
Settings: short-term cell viability (90 min)

7,15-diisocyano-11(20)-amphilectene [Compound 3]
LDH50 (concentration that caused 50% release of the total LDH content of microglia cells): >10 µM
